## Ab-14 light chain CDR variants: yeast mating affinities

Binding partner: SARS-CoV-2 spike HR2 peptide, sequence PDVDLGDISGINAS.

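The parent was found by panning a naive human phage display library on the peptide. Variants in AAYL50 differ from the parent at up to three CDR positions; double and triple changes were sampled at random. AlphaSeq pools MATa yeast showing the antibodies with MATalpha yeast showing the peptide. After mating in shaken culture at 30 °C for 16 h, diploids were selected and their barcode pairs sequenced. Read counts were normalised to the haploid input and turned into Kd by a linear fit to BCL2-family pairs of known affinity, for each replicate. The assay was run in three technical replicates.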

Ab-14 is the parent antibody, in scFv form: VH, then the linker GGGGSGGGGSGGGGS, then VL. The heavy chain is unchanged in all variants.
VH: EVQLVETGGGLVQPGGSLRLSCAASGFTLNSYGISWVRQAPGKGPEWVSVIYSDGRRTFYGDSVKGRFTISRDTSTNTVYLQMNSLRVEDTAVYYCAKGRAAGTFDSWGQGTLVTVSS
VL: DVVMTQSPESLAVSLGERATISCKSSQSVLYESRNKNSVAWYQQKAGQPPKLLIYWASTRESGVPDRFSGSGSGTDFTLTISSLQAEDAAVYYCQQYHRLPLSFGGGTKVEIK

Each variant's VL is given in full.
Scale: log10 of Kd in nM, estimated from mating counts; low values are strong binders.
The mean shown is taken over the replicates in which the pair was detected.
A pair that was not seen in any replicate is written "nd"; this usually means weak binding, but a binder can also be missed.
Parent in this assay: reference entry 0.65, copy in this library 1.68.

| VL | mean log10 Kd (nM) | detected | signal with controls |
|---|---|---|---|
| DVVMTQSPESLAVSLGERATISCKSSQSILYESRNKNSVAWYQQKAGQPPKLLIYWASTRESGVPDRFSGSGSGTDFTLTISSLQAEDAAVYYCQQYHRSPLGFGGGTKVEIK | nd | 0 of 3 | 1 of 9 |
| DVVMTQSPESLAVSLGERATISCKSSQSVLYESRNENSMAWYQQKAGQPPKLLIYWASTRESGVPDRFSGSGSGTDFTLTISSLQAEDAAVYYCQCYHRLPLSFGGGTKVEIK | 2.41 | 1 of 3 | 0 of 9 |
| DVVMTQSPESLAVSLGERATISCKSDQSVLYESRNKSSVAWYQQKAGQPPKLLIYWASTRELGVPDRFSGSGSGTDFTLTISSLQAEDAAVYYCQQYHRLPLSFGGGTKVEIK | 1.11 | 3 of 3 | 0 of 9 |
| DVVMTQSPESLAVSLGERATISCKSHQSVLAESRNKNSVAWYQQKAGQPPKLLIYWASTRESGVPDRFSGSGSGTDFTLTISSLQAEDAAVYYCQQYHRLPASFGGGTKVEIK | nd | 0 of 3 | 0 of 9 |
| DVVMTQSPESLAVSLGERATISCKSSQSVLYASRNKNSVAWYQQKAGQPPKLLIYWASKRSSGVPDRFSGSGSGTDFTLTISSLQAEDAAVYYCQQYHRLPLSFGGGTKVEIK | nd | 0 of 3 | 0 of 9 |
| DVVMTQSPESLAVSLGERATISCKSSMSVLYESRNKNSVAWYQQKAGQPPKLLIYWASRRESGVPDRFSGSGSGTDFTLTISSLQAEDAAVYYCQQYHRCPLSFGGGTKVEIK | 4.70 | 2 of 3 | 2 of 9 |
| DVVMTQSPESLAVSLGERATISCKSSQSSLYESRNKNSVAWYQQKAGQPPKLLIYWASPREAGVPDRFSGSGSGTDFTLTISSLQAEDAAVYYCQQYHRLPLSFGGGTKVEIK | 4.85 | 3 of 3 | 3 of 9 |
| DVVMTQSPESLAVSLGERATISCKSSQSVLYESRNKNSVMWYQQKAGQPPKLLIYWASTRESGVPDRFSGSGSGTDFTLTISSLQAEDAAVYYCQQYHRLPISFGGGTKVEIK | 5.26 | 1 of 3 | 3 of 9 |
| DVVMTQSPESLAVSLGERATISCKLSQSVLRESRNKNSVAWYQQKAGQPPKLLIYWASTRESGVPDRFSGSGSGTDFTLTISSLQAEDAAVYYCQQYHELPLSFGGGTKVEIK | 0.13 | 3 of 3 | 7 of 9 |
| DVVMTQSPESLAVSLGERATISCKSSQSVLYESRNKNSVAWYQQKAGQPPKLLIYWASTPESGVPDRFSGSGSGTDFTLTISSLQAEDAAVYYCQQYHINPLSFGGGTKVEIK | 1.94 | 3 of 3 | 4 of 9 |
| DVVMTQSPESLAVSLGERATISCKSSQSVLYESRNKYEVAWYQQKAGQPPKLLIYWASTEESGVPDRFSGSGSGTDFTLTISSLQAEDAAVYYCQQYHRLPLSFGGGTKVEIK | nd | 0 of 3 | 1 of 9 |
| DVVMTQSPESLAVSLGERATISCKSSQSVLYESRNKNSSAWYQQKAGQPPKLLIYWAIGRESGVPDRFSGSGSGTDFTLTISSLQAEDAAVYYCQQYHRLPLSFGGGTKVEIK | nd | 0 of 3 | 0 of 9 |
| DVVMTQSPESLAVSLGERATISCKSQQSVLYESRNKNSFAWYQQKAGQPPKLLIYWTSTRESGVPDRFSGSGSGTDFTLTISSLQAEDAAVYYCQQYHRLPLSFGGGTKVEIK | 3.06 | 3 of 3 | 4 of 9 |
| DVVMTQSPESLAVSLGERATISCKSSQLVLYESRNKSSVAWYQQKAGQPPKLLIYWASTRESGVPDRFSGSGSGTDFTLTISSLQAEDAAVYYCQQYHTLPLSFGGGTKVEIK | 1.76 | 3 of 3 | 3 of 9 |
| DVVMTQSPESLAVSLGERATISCASSQSVLYEPRNKISVAWYQQKAGQPPKLLIYWASTRESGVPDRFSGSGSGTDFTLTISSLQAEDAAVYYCQQYHRLPLSFGGGTKVEIK | 4.19 | 3 of 3 | 2 of 9 |
| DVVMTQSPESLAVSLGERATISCKRSQSVLYGSRNKNSVAWYQQKAGQPPKLLIYWASTRESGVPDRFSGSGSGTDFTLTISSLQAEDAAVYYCQQYHRLPLEFGGGTKVEIK | 4.33 | 1 of 3 | 2 of 9 |
| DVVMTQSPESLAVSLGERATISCKSSQSELYESRNKNSVAWYQQKAGQPPKLLIYWASTRYSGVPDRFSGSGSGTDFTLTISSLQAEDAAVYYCKQYHRLPLSFGGGTKVEIK | 0.59 | 3 of 3 | 1 of 9 |
| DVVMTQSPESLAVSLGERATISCKSSQSVLYESRNKNSVEWYQQKAGQPPKLLIYWASTRESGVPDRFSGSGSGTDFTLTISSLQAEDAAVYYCQTYHRLILSFGGGTKVEIK | nd | 0 of 3 | 0 of 9 |
| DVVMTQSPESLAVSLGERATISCKFRQSVLYESRNKNSVAWYQQKAGQPPKLLIYWASFRESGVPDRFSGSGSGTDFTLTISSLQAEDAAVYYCQQYHRLPLSFGGGTKVEIK | 1.61 | 3 of 3 | 0 of 9 |
| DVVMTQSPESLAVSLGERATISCKSSQSVLYESDNKTSVAWYQQKAGQPPKLLIYWASTRKSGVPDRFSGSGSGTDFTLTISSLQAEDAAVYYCQQYHRLPLSFGGGTKVEIK | 3.60 | 2 of 3 | 1 of 9 |
| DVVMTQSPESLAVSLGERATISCKSSQSCKYCSRNKNSVAWYQQKAGQPPKLLIYWASTRESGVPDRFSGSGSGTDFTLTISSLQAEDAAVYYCQQYHRLPLSFGGGTKVEIK | 2.63 | 3 of 3 | 3 of 9 |
| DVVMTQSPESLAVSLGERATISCKSSKSVLYESRNKMIVAWYQQKAGQPPKLLIYWASTRESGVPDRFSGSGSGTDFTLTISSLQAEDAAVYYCQQYHRLPLSFGGGTKVEIK | 4.41 | 1 of 3 | 2 of 9 |
| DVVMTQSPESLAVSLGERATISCFSSQSVLYESRNKNSVQWYQQKAGQPPKLLIYWASTRESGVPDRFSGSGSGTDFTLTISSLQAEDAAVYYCQQYHRLELSFGGGTKVEIK | nd | 0 of 3 | 0 of 9 |
| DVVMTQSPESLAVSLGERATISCKSSQSVLYESRVKNSVAWYQQKAGQPPKLLIYWASTCESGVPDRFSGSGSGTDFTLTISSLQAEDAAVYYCQQYHRLCLSFGGGTKVEIK | nd | 0 of 3 | 0 of 9 |
| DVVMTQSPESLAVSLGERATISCKSSQSVLYHSRNKNSVLWYQQKAGQPPKLLIYWASTRESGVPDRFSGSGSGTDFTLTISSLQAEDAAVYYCCQYHRLPLSFGGGTKVEIK | nd | 0 of 3 | 2 of 9 |
| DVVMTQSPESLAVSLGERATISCKSSQQVLYESRNKNSVAWYQQKAGQPPKLLIYWASTRESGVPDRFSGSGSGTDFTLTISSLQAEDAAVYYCQMYHRFPLSFGGGTKVEIK | nd | 0 of 3 | 1 of 9 |

Excerpt, the final 3 entries:

| VL | mean log10 Kd (nM) | detected | signal with controls |
|---|---|---|---|
| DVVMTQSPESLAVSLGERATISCKSSQSVLYESRVKNSVAWYQQKAGQPPKLLIYWASTCESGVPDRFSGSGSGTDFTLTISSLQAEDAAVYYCQQYHRLCLSFGGGTKVEIK | nd | 0 of 3 | 0 of 9 |
| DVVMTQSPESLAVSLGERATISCKSSQSVLYHSRNKNSVLWYQQKAGQPPKLLIYWASTRESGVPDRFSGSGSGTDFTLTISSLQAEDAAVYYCCQYHRLPLSFGGGTKVEIK | nd | 0 of 3 | 2 of 9 |
| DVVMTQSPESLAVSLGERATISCKSSQQVLYESRNKNSVAWYQQKAGQPPKLLIYWASTRESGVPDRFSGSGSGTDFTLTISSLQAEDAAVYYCQMYHRFPLSFGGGTKVEIK | nd | 0 of 3 | 1 of 9 |

Three control strains display no target. For library AAYL50, 18% of the pairings with them gave a signal, with a median of 4.19 and one signal in twenty below 2.99, so weak values seen in few replicates may be background. Also given: how often the same scFv was detected with the empty control strains.

Source: Engelhart et al. 2022 (doi:10.1038/s41597-022-01779-4), MIT Lincoln Laboratory and A-Alpha Bio; data file from the FLAb repository.